From paper PMC6745035, “Novel tetrahydroacridine derivatives with iodobenzoic moieties induce G0/G1 cell cycle arrest and apoptosis in A549 non-small lung cancer and HT-29 colorectal cancer cells” (Molecular and Cellular Biochemistry, 2019)

The chains behind the UniProt entries cited, without tags or fusion partners. Residues count along the entry.
UniProt Q2YDK3, 36-553 limits assumed: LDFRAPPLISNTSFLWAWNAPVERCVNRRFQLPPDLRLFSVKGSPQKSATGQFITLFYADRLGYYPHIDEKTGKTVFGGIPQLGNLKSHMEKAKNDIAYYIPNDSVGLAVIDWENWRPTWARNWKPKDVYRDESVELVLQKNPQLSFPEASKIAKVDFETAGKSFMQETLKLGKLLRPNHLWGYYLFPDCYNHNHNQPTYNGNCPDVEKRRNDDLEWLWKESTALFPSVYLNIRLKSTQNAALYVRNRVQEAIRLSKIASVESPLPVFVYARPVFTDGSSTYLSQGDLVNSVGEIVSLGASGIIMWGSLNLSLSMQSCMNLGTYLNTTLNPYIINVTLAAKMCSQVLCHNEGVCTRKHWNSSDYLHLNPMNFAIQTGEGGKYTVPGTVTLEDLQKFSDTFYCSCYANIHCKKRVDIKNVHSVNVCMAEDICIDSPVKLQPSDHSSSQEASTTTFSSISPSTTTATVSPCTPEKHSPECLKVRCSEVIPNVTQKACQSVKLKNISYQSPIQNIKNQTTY

Columns and labels:
[1] = biological target: hyaluronidase from bovine testes Type I-S (Bos taurus, UniProt Q2YDK3); test: Hyaluronidase inhibition assay (turbidimetric); type: biochemical; details: read-out: HYAL IC50 ± SD
[2] = tested on: 253J B-V and 253J B-V cisplatin-resistant cells; test: Cytotoxicity on cisplatin-resistant and non-resistant 253J B-V cells; details: 24 h, 48 h, 72 h; IC50 of A549, IC50 of HT-29, 1/2IC50, 1/4IC50

SMILES: O=C(NCCCCNc1c2c(nc3ccccc13)CCCC2)c1cccc(I)c1 [Compound 1f]
- IC50 [1]: 384 µM
- Cytotoxic effect on cisplatin-resistant versus non-resistant 253J B-V cells (in words) [2]: resistant cells were more sensitive
